Values quoted from earlier work as cited in patent US11608532B2, “Precision medicine for treating and preventing suicidality” (Indiana University Research and Technology Corporation, priority 2017, dated 2023).
Like-named read-outs stand apart in the source and are kept apart here.

System: individual top biomarkers for suicidality
Conditions: for HTR2A modulated by drug in opposite direction to suicide: DE/2
[1] = A. Top Universal Biomarkers, direction of change in suicidality (I)
[2] = C. Top Biomarkers in Females, direction of change in suicidality I
[3] = D. Top Biomarkers in Bipolar Disorder, direction of change in suicidality (I)
[4] = F. Top Biomarkers in Males with Bipolar Disorder, direction of change in suicidality (I)

Row | Structure (SMILES) | HTR2A modulated by drug in opposite direction to suicide [1] | HTR2A modulated by drug in opposite direction to suicide [2] | HTR2A modulated by drug in opposite direction to suicide [3] | HTR2A modulated by drug in opposite direction to suicide [4] | SLC6A4 modulated by drug in opposite direction to suicide (D. Top Biomarkers in Bipolar Disorder, direction of change in suicidality (D), DE/1)
1 | OCCOCCN1CCN(C2=Nc3ccccc3Sc3ccccc32)CC1 [quetiapine] | quetiapine, | quetiapine, | quetiapine, | quetiapine, | –
2 | CN(C)CCC=C1c2ccccc2CCc2ccccc21 [amitriptyline] | amitriptyline | amitriptyline | amitriptyline | amitriptyline | –
3 | Cc1nc2n(c(=O)c1CCN1CCC(c3noc4cc(F)ccc34)CC1)CCCC2 [Risperidone] | Risperidone, | Risperidone, | Risperidone, | Risperidone, | –
4 | O=C(CCCN1CCC(O)(c2ccc(Cl)cc2)CC1)c1ccc(F)cc1 [haloperidol, reference compound] | Haloperidol | Haloperidol | Haloperidol | Haloperidol | –
5 | CNCCC(Oc1ccc(C(F)(F)F)cc1)c1ccccc1 (stereo not drawn) [Fluoxetine] | – | – | – | – | Fluoxetine
6 | O=C1CC2(CCCC2)CC(=O)N1CCCCN1CCN(c2ncccn2)CC1 [Buspirone] | Buspirone, | Buspirone, | Buspirone, | Buspirone, | –
